Assay: in vitro
Settings: human, pooled human liver microsomes

CC(C)N(CCCNC(=O)Nc1ccc(C(C)(C)C)cc1)C[C@H]1O[C@@H](n2cnc3c(N)ncnc32)[C@H](O)[C@@H]1O [SYC-522]
microsomal CLint at 1.98 µM: 24 µL/min/mg
